Target: CYP1A2 (Homo sapiens, UniProt P05177)
Format: in vitro ADME
Conditions: α-naphthoflavone 6 μM (CYP1A2 inhibitor), human liver microsomes

Sequences of proteins named here, by UniProt entry; tags and fusion partners are left off.
UniProt P05177, whole entry: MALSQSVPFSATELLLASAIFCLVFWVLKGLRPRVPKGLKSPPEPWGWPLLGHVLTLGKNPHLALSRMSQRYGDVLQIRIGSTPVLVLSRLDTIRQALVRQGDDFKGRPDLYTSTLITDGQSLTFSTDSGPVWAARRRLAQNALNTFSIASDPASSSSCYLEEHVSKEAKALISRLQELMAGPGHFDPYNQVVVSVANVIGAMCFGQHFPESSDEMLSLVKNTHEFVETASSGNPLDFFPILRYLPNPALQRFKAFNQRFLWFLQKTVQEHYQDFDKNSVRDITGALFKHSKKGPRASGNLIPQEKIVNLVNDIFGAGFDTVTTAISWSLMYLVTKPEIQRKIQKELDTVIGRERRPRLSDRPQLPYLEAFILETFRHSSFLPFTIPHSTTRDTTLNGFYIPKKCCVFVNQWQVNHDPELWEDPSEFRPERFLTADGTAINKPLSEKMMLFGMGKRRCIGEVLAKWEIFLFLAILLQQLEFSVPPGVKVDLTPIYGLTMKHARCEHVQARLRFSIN

effect on the formation of M1, M3, and M5: did not show significant effect
Structure (SMILES): O=c1cc(-c2ccccc2)oc2c1ccc1ccccc12 [α-naphthoflavone, α-Naphthoflavone]

Source: paper PMC10395006 (Archives of toxicology, 2022)
